In this test the target is T1, rFAAH (Rattus norvegicus, UniProt P97612).
T1 construct: from tissue; host or cells: rat brain membranes
Put plainly: FAAH activity assay, rat brain membranes, [14C]AEA hydrolysis. Format: biochemical. Particulars: compound at 100 µm. As to the method: Rat brains were homogenized in 50 mM Tris-HCl (50 mM, pH 7.4), and were centrifuged sequentially at 800× g and 20,000× g; then, the supernatants were discharged, and rFAAH activity was tested in membrane preparations incubated with 10 µM [^14C]AEA at 37 °C for 15 min (pH = 9.0). The reaction was stopped with a 1:1 (v/v) mixture of chloroform/methanol and the release of [^14C]ethanolamine in the aqueous phase was measured as reported. Purified human FAAH was assayed in the same way as rFAAH.

By UniProt entry, the sequences of proteins in these tests, tags left out.
UniProt P97612, whole entry: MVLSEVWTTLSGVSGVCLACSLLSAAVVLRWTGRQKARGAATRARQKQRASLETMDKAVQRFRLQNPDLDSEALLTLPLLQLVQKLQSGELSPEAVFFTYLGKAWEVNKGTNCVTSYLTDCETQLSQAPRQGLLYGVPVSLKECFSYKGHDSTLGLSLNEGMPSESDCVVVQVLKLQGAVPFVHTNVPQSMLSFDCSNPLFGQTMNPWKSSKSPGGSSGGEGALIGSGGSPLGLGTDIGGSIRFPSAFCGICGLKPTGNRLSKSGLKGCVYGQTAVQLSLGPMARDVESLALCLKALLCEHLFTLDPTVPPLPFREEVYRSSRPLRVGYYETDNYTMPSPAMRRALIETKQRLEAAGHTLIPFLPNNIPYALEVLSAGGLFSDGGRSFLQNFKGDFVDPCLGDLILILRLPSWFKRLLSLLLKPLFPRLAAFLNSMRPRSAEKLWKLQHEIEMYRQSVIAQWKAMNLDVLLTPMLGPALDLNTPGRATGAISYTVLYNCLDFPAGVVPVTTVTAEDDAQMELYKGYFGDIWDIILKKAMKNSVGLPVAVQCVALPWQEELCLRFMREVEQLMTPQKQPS

These results are taken from publication PMC7795171, “In Silico and In Vitro Analysis of Major Cannabis-Derived Compounds as Fatty Acid Amide Hydrolase Inhibitors” (Molecules, 2020).

Turning to `C=C(C)[C@@H]1CCC(C)=C[C@H]1c1c(O)cc(CCCCC)cc1O` [CBD, cannabidiol, reference compound], the “% In Vitro Inhibition (At 100 µm)” value stood at 94%.
